Experimental findings from US20060241067A1, “Methods For inhibiting angiogenesis, cell migration, cell adhesion, and cell survival” (priority 2002, published 2006) are described below.

In this test the test system is chick chorioallantoic membrane (CAM). Put plainly: Chick chorioallantoic membrane (CAM) angiogenesis assay. The format is in vivo, chicken.

As for “CGRP: calcitonin gene related peptide, a vasodilatory peptide hormone (ACDTATCVTHRLAGLLSRSGGVVKNNFVPTNVGSKAF; Calcitonin gene-related peptide 1; UniProt P06881 83-119, looked up)”, the “angiogenesis (blood vessel branch points, vessel density)” value (bFGF stimulated CAMs, 1 μM peptide) is given as “Only PTHrP inhibited angiogenesis”. Where the note is “saline-stimulated CAMs”, the “pre-existing vessels (number, size, composition)” value was “no effect on the number, size or composition of pre-existing vessels”.
